The values below are quoted from earlier work in patent US20070048320A1, “Method for indentifying modulators of PPIL2 useful for treating Alzheimer's disease” (priority 2005, published 2007).

The chains behind the UniProt entries cited, without tags or fusion partners. Residues count along the entry.
UniProt P56817, 46-501: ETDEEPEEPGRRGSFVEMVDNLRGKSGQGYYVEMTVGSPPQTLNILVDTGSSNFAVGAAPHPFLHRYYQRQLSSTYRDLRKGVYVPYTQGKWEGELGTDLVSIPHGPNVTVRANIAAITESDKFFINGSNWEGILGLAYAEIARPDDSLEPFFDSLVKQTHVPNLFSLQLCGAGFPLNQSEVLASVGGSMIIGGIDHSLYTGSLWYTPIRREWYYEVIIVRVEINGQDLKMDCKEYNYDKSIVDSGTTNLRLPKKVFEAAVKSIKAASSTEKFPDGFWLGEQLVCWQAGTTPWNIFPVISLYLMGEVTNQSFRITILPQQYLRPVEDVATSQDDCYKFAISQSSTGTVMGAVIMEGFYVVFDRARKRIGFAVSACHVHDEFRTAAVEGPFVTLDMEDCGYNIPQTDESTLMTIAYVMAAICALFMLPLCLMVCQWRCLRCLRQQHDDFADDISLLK

The series has as its target T1, recombinant β-secretase produced in E. coli (Homo sapiens, UniProt P56817).
T1 construct: host or cells: E. coli
The settings on record: read-out: Ki towards recombinant β-secretase.

As to VNL*AAEF [OM99-1], the Ki is 68.4 nM.
